Measurements as given in patent publication US4239708A, “P-Phenylene bis[imino(thiocarbonyl)] diphosphoramidic acid esters as anthelmentic agents” (dated 1980).

Experiments:
Sheep = assay: Toxicity in Sheep; conditions: for Number dead/total / Symptoms Observed in Survivors: sheep
Swine = assay: Toxicity Study in Swine; conditions: 5 pigs
dogs = assay: Toxicity in dogs
[1] = SOD 250 mg/kg, values marked *: died 5-6 days after administration, esophageal puncture not related to medication

| SMILES | Number dead/total (Sheep; SOD 100 mg/kg) | Number dead/total (Sheep; SOD 200 mg/kg) | Death (No. of Pigs) (Swine; SOD 150 mg/kg) | No. of Pigs with Toxic Symptoms (Swine; SOD 150 mg/kg) | Number of Dogs Showing Adverse Symptoms/total treated: *Severe Toxicity (dogs; SOD 25 mg/kg) | Number of Dogs Showing Adverse Symptoms/total treated: Transient Anorexia (dogs; SOD 25 mg/kg) | Number of Dogs Showing Adverse Symptoms/total treated: Transient Emesis (dogs; SOD 25 mg/kg) | Number of Dogs Showing Adverse Symptoms/total treated: *Severe Toxicity (dogs; SOD 50 mg/kg) | Number of Dogs Showing Adverse Symptoms/total treated: Transient Anorexia (dogs; SOD 50 mg/kg) | Number of Dogs Showing Adverse Symptoms/total treated: Transient Emesis (dogs; SOD 50 mg/kg) | Number of Dogs Showing Adverse Symptoms/total treated: *Severe Toxicity (dogs; SOD 75 mg/kg) | Number of Dogs Showing Adverse Symptoms/total treated: Transient Anorexia (dogs; SOD 75 mg/kg) | Number of Dogs Showing Adverse Symptoms/total treated: Transient Emesis (dogs; SOD 75 mg/kg) | Death (No. of Pigs) (Swine; SOD 200 mg/kg) | No. of Pigs with Toxic Symptoms (Swine; SOD 200 mg/kg) | No. of Pigs with Toxic Symptoms (Swine; SOD 250 mg/kg) | Death (No. of Pigs) (Swine; [1]) | also measured |
| --- | --- | --- | --- | --- | --- | --- | --- | --- | --- | --- | --- | --- | --- | --- | --- | --- | --- | --- |
| CCOP(=O)(NC(=S)Nc1ccc(Cl)cc1NC(=S)NP(=O)(OCC)OCC)OCC | 0/2 | 2/2 |  |  |  |  |  |  |  |  |  |  |  |  |  |  |  | symptoms persisted after dosing (Sheep; sheep survivors, SOD 150 mg/kg): 4 days; Symptoms Observed in Survivors (Sheep; SOD 100 mg/kg): No obvious symptoms; Number dead/total (Sheep; SOD 150 mg/kg): 1/2 |
| CCOP(=O)(NC(=S)Nc1ccccc1NC(=S)NP(=O)(OCC)OCC)OCC | 1/2 |  | 4 | 5 | 0/5 | 0/5 | 3/5 | 1/5 | 2/5 | 1/5 | 1/3 | 2/3 | 2/3 |  |  |  |  | Death (No. of Pigs) (Swine; SOD 50 mg/kg): 1; No. of Pigs with Toxic Symptoms (Swine; SOD 50 mg/kg): 5; Death (No. of Pigs) (Swine; SOD 100 mg/kg): 0; No. of Pigs with Toxic Symptoms (Swine; SOD 100 mg/kg): 5; symptoms persisted (Sheep; sheep survivors, SOD 50 and 100 mg/kg): 9 days; Number dead/total (Sheep; SOD 50 mg/kg): 1/2; Symptoms Observed in Survivors (Sheep; SOD 50 and 100 mg/kg): Salivation, rigidity, malaise, anorexia |
| CCOP(=O)(NC(=S)Nc1ccc(NC(=S)NP(=O)(OCC)OCC)c(Cl)c1)OCC | 0/1 | 0/2 | 0 | 5 | 0/3 | 1/3 | 1/3 | 0/3 | 0/3 | 0/3 | 0/3 | 2/3 | 2/3 | 1 | 3 | 5 | 1 | Symptoms Observed in Survivors (Sheep; SOD 100 and 200 mg/kg): No obvious symptoms |
| CCOP(=O)(NC(=S)Nc1ccc(NC(=S)NP(=O)(OCC)OCC)c(OC)c1)OCC |  |  | 0 | 0 | 0/3 | 0/3 | 1/3 | 0/3 | 3/3 | 1/3 | 0/3 | 1/3 | 0/3 | 0 | 5 | 5 | 2 |  |
